Experimental data from US20240092799A1, “MNK INHIBITORS” (Hepagene Therapeutics (HK) Limited, priority 2020, published 2024).
Like-named read-outs stand apart in the source and are kept apart here.

By UniProt entry, the sequences of proteins in these tests, tags left out.
UniProt Q9HBH9, whole entry: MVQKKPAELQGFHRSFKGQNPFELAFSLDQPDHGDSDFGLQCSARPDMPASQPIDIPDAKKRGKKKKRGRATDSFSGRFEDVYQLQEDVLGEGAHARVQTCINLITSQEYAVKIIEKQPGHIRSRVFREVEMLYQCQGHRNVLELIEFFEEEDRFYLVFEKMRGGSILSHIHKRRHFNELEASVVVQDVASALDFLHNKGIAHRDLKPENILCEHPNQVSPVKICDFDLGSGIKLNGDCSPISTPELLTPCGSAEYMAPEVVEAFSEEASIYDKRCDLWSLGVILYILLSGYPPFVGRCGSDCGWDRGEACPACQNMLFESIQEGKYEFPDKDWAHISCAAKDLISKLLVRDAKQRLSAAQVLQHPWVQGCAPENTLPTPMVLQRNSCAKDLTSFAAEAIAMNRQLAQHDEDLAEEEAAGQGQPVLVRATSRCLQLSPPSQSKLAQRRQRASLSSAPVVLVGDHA

Columns and labels:
MNK2 = MNK2 (Homo sapiens (Human), UniProt Q9HBH9); assay: MNK Biochemical Enzymatic Assay (ADP-Glo), MNK2 binding assay
Procedure: MNK Biochemical Enzymatic Assay. This protocol establishes the binding assays for MNK1 and MNK2 using ADP-Glo assay. MNK phosphorylates the substrate and converts ATP to ADP, which was detected by Envision and used to reflect the reminding activity of MNK. Reagents and equipment used in the assay are listed below, followed by the protocol.
• a) Add 50 μL compound to 384-well dilution plate • b) Dilute compound 1:3 in succession in DMSO for each column for 10+0 pts (refer to dilution plate map) • c) Transfer 0.1 μL diluted compound solution in each row to 384 assay plate using Echo, each column containing 2 replicates (refer to assay plate map) • d) Add 5 μL enzyme working solution to 384-well assay plate, centrifuge 1000 RPM for 1 min • e) Incubate at 25° C. for 15 min • f) Add 5 μL substrate working solution to initiate reaction • g) Incubate at 25° C. for 60 min • h) Add 10 μL ADP Glo reagent, centrifuge 1000 RPM for 1 min • i) Incubate at 25° C. for 60 min • j) Add 20 μL kinase detection reagent, centrifuge 1000 RPM for 1 min • k) Incubate at 25° C. for 60 min • l) Read on Envision for US LUM as RLU • m) Data analysis: IC50s were determined based on a non-linear regression analysis of data collected.

TMD-8 cell p-IF4E = assay: p-eIF4E Signaling Cellular Assay (CisBio HTRF) in TMD-8 cells; conditions: read-out: TMD-8 cell p-IF4E IC50, 40 min treatment, tested form: formate
Procedure: p-eIF4E Signaling Cellular Assay. Phosphorylated eIF4E is assayed using the CisBio p-Eif4E HTRF assay kit. Reagents and equipment used in the assay are listed below, followed by the protocol.
Cell medium: RPMI 1640+10% FBS+1*PS, TMD-8 were cultured as recommended and assayed in exponential growth phase. • a) Plate 30 μL of cells in 384 white assay plate in appropriate medium and proper cell density (20 k/well) based on Optimization at 37° C. under 5% CO2 atmosphere • b) Dispense 90 nL of compounds diluted in DMSO and treat for 40 min at 37° C. under 5% CO2 atmosphere • c) Remove cell supernatant by flicking the plate • d) Add 16 μL of supplemented lysis buffer (1×) for 30 minutes at RT under shaking • e) Add 4 μL of premixed antibody solutions prepared in the detection buffer. Cover the plate with a plate sealer. Incubate 0/N at RT • f) Read the fluorescence emission at 665 nm and 620 nm on Envision • g) Data analysis • (1) Ratio […] signal is calculated for each well • (2) % Inhibition is calculated as follow:
% inhibition=100−(Signalcmpd-SignalAve_PC)/(SignalAve_VC-SignalAve_PC)×100. • (3) Calculate IC50 and Plot effect-dose curve of cmpds:
Calculate IC50 by fitting % Inhibition values and log of compound concentrations to nonlinear regression (dose response−variable slope) with Graphpad 8.0. […]

SMILES	IC50 (MNK2; read-out: MNK2 binding assay IC50) [nM]	IC50 (TMD-8 cell p-IF4E) [nM]	IC50 (MNK2; read-out: MNK2 binding assay IC50, tested form: formate) [nM]
COc1c(Nc2cc(C)c3c([n+]2[O-])C2(CCCCC2)NC3=O)ncnc1N[C@H]1CCOC1	100 to 1000	–	–
Cc1cc(Nc2cc(Nc3ccc(C4CCN(C)CC4)cn3)ncn2)[n+]([O-])c2c1C(=O)NC21CCCCC1	–	0.1 to 10	0.1 to 10
